Shown are actives, neighbours in structure and some others; about 1.6% of the full set was active somewhere.
Yeast UUG start-1: alters start codon recognition fidelity in yeast; S. cerevisiae UUG-firefly luciferase reporter, luminescence/redox ratio; activity score, % at 18.7 µM; actives 0.13% (n = 350,000); AID 602363;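 active = replicate mean at a twofold rise or more, about +100% in these data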;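 also: firefly luciferase made from a UUG start codon reports start codon fidelity; reporter light over untreated wells divided by growth signal over untreated wells; some hits fall short of that in this replicate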
Vif imaging: HIV Vif inhibition; HEK293T cells, Vif self-association by quenched fluorescence, imaging, 24 h; hit rate 0.35% among 340,000; inhibition, % at 7.49 µM; in the data active means inhibition above about 50%, passing the limit was not always enough
PglD inh: inhibitors of Campylobacter jejuni PglD acetyltransferase. purified PglD enzyme, DTNB colorimetric CoA detection. inhibition, % at 12.5 µM. hit rate 0.098% among 360,000; in the data active means inhibition above about 16%, passing the limit was not always enough
ARNT TACC3 PPI: ARNT/TACC3 interaction disruption | Q9Y6A5 | AlphaScreen His-ARNT PAS-B/GST-TACC3 binding, luminescence; TACC3 fragment carries E629A point mutation | inhibition, % at 9.99 µM | hit rate 0.66% among 390,000 | AID 623870;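 active means mean inhibition of replicates at least 50% and at least half of replicates each reaching 50%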;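 further: 0% = complete ARNT plus TACC3 wells and 100% = ARNT alone without TACC3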
CAL PDZ FP-1: inhibitors of human CAL PDZ peptide binding; Q9HD26; purified CAL PDZ, TMR-peptide fluorescence polarization, 1 h; inhibition, % at 20 µM; hit rate 0.02% among 330,000; AID 504414;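 active means highest replicate inhibition of at least 40%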;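 further: plate controls were DMSO neutral control wells for no effect and unlabeled competitor peptide control wells for full effect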
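Assay system – tagged CAL PDZ protein CerCALP, purified · Timing – 1 h at RT · Compound – single point, 20 µM · Measured by – fluorescence polarization from S- and P-plane intensities, G-factor corrected · Evaluation – inhibition from polarization loss · Probe or stimulus – TMR reporter peptide T*-PRC34 · Buffer or medium – pH 7.4 phosphate-saline buffer, reducing agent, detergent, IgG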
CAL PDZ FP-2: blocks peptide binding to the human CAL PDZ domain; purified CAL PDZ, TMR-peptide fluorescence polarization, 1 h; inhibition, % at 24.9 µM; Q9HD26; hit rate 0.92% among 300,000;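 active means mean inhibition of at least 30% with at least half of replicates also reaching 30%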;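 further: 0% = DMSO neutral control and 100% = excess unlabeled competitor peptide PRC23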
Yeast UUG start-2: yeast start codon fidelity modulation. shares compounds with Yeast UUG start-1. activation, % at 38 µM. 540 tested, under 10 active. S. cerevisiae UUG-start firefly luciferase, luminescence, 4 h; 100% means double the DMSO signal;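 active means signal increase whose fitted curve reaches an absolute level of 40 at a concentration under 10 µM; inactive means activity opposite to the expected increase, or the rest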
Active calls of the source: *; i = inactive; · = no result given.

| Vif imaging | CAL PDZ FP-1 | Yeast UUG start-2 | CAL PDZ FP-2 | ARNT TACC3 PPI | PglD inh | Yeast UUG start-1 | smiles |
| --- | --- | --- | --- | --- | --- | --- | --- |
| · | · | · | · | 2 | 1 | -9 | C[C@@H]1CN([C@@H](C)CO)C(=O)c2cc(NC(=O)Nc3ccc4c(c3)OCO4)ccc2O[C@H]1CN(C)Cc1ccc(-c2ccccc2)cc1 |
| -5 | -1 | · | 64* | -1 | 4 | -6 | COc1ccccc1CN(C)S(=O)(=O)c1cccs1 |
| · | · | · | · | 1 | -1 | -6 | O=C(C[C@@H]1CC[C@@H](NC(=O)Nc2cccc(F)c2)[C@@H](CO)O1)NCC1CC1 |
| -1 | -1 | · | 33* | · | 2 | -9 | Cc1ccc(-c2csc3ncnc(SCC(=O)NCC4CCCO4)c23)cc1 (stereo not drawn) |
| -12 | -2 | · | -5 | -5 | -2 | -26 | Cc1ccc(-c2csc3ncnc(SCC(=O)O)c23)cc1 |
| 23 | -2 | · | -3 | -4 | -1 | -9 | CC(=O)NC(Cc1ccc(F)cc1)C(=O)NC1CCN(S(=O)(=O)c2ccccc2)CC1 (stereo not drawn) |
| 15 | -1 | · | 49* | 0 | 0 | 17 | CC(=O)NC(Cc1cccc(C)c1)C(=O)NC1CCN(S(=O)(=O)c2ccccc2)CC1 (stereo not drawn) |
| 74* | -3 | · | -1 | 1 | 2 | -6 | COc1cc(O)c(C(CC(=O)N2CCCC2)c2ccc(N(C)C)cc2)c(OC)c1 (stereo not drawn) |
| -2 | -1 | · | -2 | active | -4 | 9 | CC(C)Oc1ccc(C2CC(=O)N(c3cccc(/C=C/C(=O)O)c3)C2=O)cc1 (stereo not drawn) |
| · | · | i | · | 4 | 0 | 103* | O=C(Cc1ccccn1)NCC[C@@H]1CC[C@H](NS(=O)(=O)c2ccc(Cl)cc2)[C@H](CO)O1 |
| · | · | · | · | 4 | -2 | -5 | O=S(=O)(N[C@H]1CC[C@@H](CCn2cc(-c3cccnc3)nn2)O[C@@H]1CO)c1ccc(Cl)cc1 |
| · | · | i | · | 18 | -5 | 194* | COCc1cn(CC[C@H]2CC[C@H](NC(=O)Nc3c(C)noc3C)[C@H](CO)O2)nn1 |
| · | · | i | · | -15 | -35 | 155* | COc1cccc(-c2cn(CC[C@@H]3CC[C@H](NC(=O)CC4CC4)[C@@H](CO)O3)nn2)c1 |
| · | · | i | · | -11 | -2 | 102* | O=S(=O)(N[C@@H]1CC[C@H](CCn2cc(-c3cccnc3)nn2)O[C@@H]1CO)c1ccc(Cl)cc1 |
| · | · | · | · | -2 | -2 | -4 | COc1ccc(NC(=O)N(C)C[C@@H]2Oc3c(NC(=O)c4ccc(-c5nccs5)cc4)cccc3C(=O)N([C@@H](C)CO)C[C@@H]2C)cc1 |
| · | · | · | · | -3 | 1 | 17 | CCC(=O)N(C)C[C@@H]1Oc2cc(-c3ccc(OC)cc3)ccc2S(=O)(=O)N([C@H](C)CO)C[C@@H]1C |
| · | · | · | · | -2 | 2 | · | CO[C@H](CN(C)C(=O)C1CCOCC1)[C@H](C)CN([C@H](C)CO)S(=O)(=O)c1ccccc1 |
| · | · | · | · | -9 | 5 | 3 | O=C(Cc1ccccn1)N[C@H]1CC[C@@H](CCNS(=O)(=O)c2cccc(F)c2)O[C@H]1CO |
| · | · | i | · | 24 | 0 | 243* | O=C(Cc1ccccn1)N[C@H]1CC[C@@H](CCNS(=O)(=O)c2cccc(F)c2)O[C@@H]1CO |
| 0 | -1 | 15 | 2 | 9 | 3 | 156* | CC1CN(Cc2c(O)ccc3c2oc(=O)c2ccccc23)CC(C)O1 (stereo not drawn) |
| -4 | 0 | · | -3 | 38 | 0 | -2 | CC1CN(Cc2c(O)ccc3c(=O)c(-c4ccccc4)coc23)CC(C)O1 (stereo not drawn) |
| · | · | i | · | 3 | 3 | 119* | C[C@@H]1CN([C@@H](C)CO)C(=O)c2cc(C#CC3CCCCC3)cnc2O[C@H]1CN(C)S(=O)(=O)c1ccc(F)cc1 |
| · | · | i | · | 0 | 0 | 130* | C/C=C/c1cnc2c(c1)C(=O)N([C@H](C)CO)C[C@H](C)[C@H](CN(C)S(=O)(=O)c1ccc(F)cc1)O2 |
| · | · | · | · | 0 | -3 | -1 | Cc1noc(C)c1NC(=O)Nc1ccc2c(c1)C(=O)N([C@H](C)CO)C[C@H](C)[C@H](CN(C)S(=O)(=O)c1ccccc1)OCCCC[C@H](C)O2 |
| 4 | -2 | · | -2 | 6 | -14 | 7 | Cc1ccc(Oc2nc3ccccn3c(=O)c2/C=C(\C#N)C(=O)Nc2c(C)n(C)n(-c3ccccc3)c2=O)c(C)c1 |
| 3 | 0 | 7 | · | 3 | -8 | 112* | COc1ccccc1Oc1nc2ccccn2c(=O)c1/C=C(\C#N)C(=O)Nc1c(C)n(C)n(-c2ccccc2)c1=O |
| · | · | · | · | -19 | -4 | 22 | CO[C@H]1CN(C)C(=O)c2ccc(NC(=O)C3CCOCC3)cc2OC[C@@H](C)N(C(C)=O)C[C@H]1C |
| · | 0 | · | -8 | -2 | · | · | O=C(/C=C\c1ccco1)Nc1nc(-c2ccccc2)cs1 |
| -4 | 0 | -7 | 6 | · | -1 | 594* | O=C(/C=C/c1ccccc1)Nc1nc(-c2ccncc2)cs1 |
| · | · | · | · | -20 | 2 | 18 | CCCNC(=O)N1C[C@H](C)[C@H](OC)CN(C)C(=O)c2ccc(NC(=O)CCC)cc2OC[C@H]1C |
| 4 | -2 | 10 | -2 | -2 | -4 | 103* | CCOC(=O)CNC(=O)c1ccccc1 |
| · | · | · | · | 9 | 4 | 8 | CN(C)Cc1cn(CC[C@@H]2CC[C@@H](N)[C@H](CO)O2)nn1 |
| · | · | i | · | -22 | -1 | 134* | CC(C)c1cn(CC[C@H]2CC[C@H](N)[C@@H](CO)O2)nn1 |
| -16 | -1 | -4 | -3 | -17 | 1 | active | COc1ccc(-c2noc(Cc3cccs3)n2)cc1 |
| · | · | · | · | 2 | -3 | 5 | C[C@@H]1CCCCO[C@H](CN(C)S(=O)(=O)c2cccs2)[C@H](C)CN([C@@H](C)CO)C(=O)c2cc(NC(=O)c3ccncc3)ccc2O1 |
| -1 | 1 | -7 | · | -1 | 10 | 180* | O=C(CN1c2ccccc2Sc2ccccc21)N/N=C/c1ccc(Cl)cc1 |
| -3 | -1 | · | -3 | -1 | -11 | -25 | O=C(CN1c2ccccc2Sc2ccccc21)N/N=C/c1ccc(Cl)cc1Cl |
| -8 | -2 | 0 | -1 | 30 | 0 | 516* | COc1cc(C2CC(=O)C=C(O)C2)cc(OC)c1OC (stereo not drawn) |
| · | · | · | · | -1 | 2 | 18 | C[C@H]1CN([C@@H](C)CO)S(=O)(=O)c2ccc(-c3cccnc3)cc2O[C@@H]1CN(C)C(=O)CN(C)C |
| 1 | 0 | -1 | 6 | · | 4 | 479* | COC(=O)c1cn(NC(=O)Cc2ccc(OC)c(OC)c2)c(=O)c2ccccc12 |
| 4 | -2 | · | 0 | -1 | · | · | COC(=O)c1cn(NC(=O)c2ccc(OC)c([N+](=O)[O-])c2)c(=O)c2ccccc12 |

Some of the entries so far, field by field.
CCOC(=O)CNC(=O)c1ccccc1
  Vif imaging: 4
  CAL PDZ FP-1: -2
  Yeast UUG start-2: 10
  CAL PDZ FP-2: -2
  ARNT TACC3 PPI: -2
  PglD inh: -4
  Yeast UUG start-1: 103*
O=C(CN1c2ccccc2Sc2ccccc21)N/N=C/c1ccc(Cl)cc1
  Vif imaging: -1
  CAL PDZ FP-1: 1
  Yeast UUG start-2: -7
  CAL PDZ FP-2: ·
  ARNT TACC3 PPI: -1
  PglD inh: 10
  Yeast UUG start-1: 180*
O=C(CN1c2ccccc2Sc2ccccc21)N/N=C/c1ccc(Cl)cc1Cl
  Vif imaging: -3
  CAL PDZ FP-1: -1
  Yeast UUG start-2: ·
  CAL PDZ FP-2: -3
  ARNT TACC3 PPI: -1
  PglD inh: -11
  Yeast UUG start-1: -25
C[C@H]1CN([C@@H](C)CO)S(=O)(=O)c2ccc(-c3cccnc3)cc2O[C@@H]1CN(C)C(=O)CN(C)C
  Vif imaging: ·
  CAL PDZ FP-1: ·
  Yeast UUG start-2: ·
  CAL PDZ FP-2: ·
  ARNT TACC3 PPI: -1
  PglD inh: 2
  Yeast UUG start-1: 18

Assay outcomes from PubChem.
